Key:
RORγt-LBD+-Jurkat cells = experiment: CC50 test, median cytotoxic concentration against RORγt-LBD+-Jurkat cells; format: cell-based
From the text: EC50 and CC50 tests: EC50 (half maximal (50%) effective concentration) is a half maximal effective concentration against RORγt-LBD+-Jurkat cells, and CC50 (median (50%) cytotoxic concentration) is a median cytotoxic concentration against RORγt-LBD+-Jurkat cells.

The chains behind the UniProt entries cited, without tags or fusion partners. Residues count along the entry.
UniProt P51449, 269-508 limits assumed: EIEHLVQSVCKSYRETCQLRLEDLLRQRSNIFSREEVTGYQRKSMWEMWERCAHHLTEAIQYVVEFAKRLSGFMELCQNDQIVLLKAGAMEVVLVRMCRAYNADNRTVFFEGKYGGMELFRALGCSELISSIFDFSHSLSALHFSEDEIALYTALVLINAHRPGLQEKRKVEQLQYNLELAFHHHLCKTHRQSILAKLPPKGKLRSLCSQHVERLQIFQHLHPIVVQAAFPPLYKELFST

RORγt = RORγt (Homo sapiens, UniProt P51449); experiment: EC50 test, inhibition of RORγt transcription activity (luciferase activity reporter system) in RORγt-LBD+-Jurkat cells; details: for EC50: half maximal effective concentration against RORγt-LBD+-Jurkat cells
IL-17A = experiment: Intracellular protein expression of IL-17A (flow cytometer), Th17 cells; details: FIG. 21; 1.56, 3.12 and 6.25 μM compound vs solvent group
From the text: The compound for inhibiting RORγt activity as described above may be used in preparation of a therapeutic formulation for the treatment of autoimmune diseases, in preparation of a formulation that inhibits formation of a Th17 cell, in preparation of a formulation that inhibits the RORγt transcription activity, or in preparation of a formulation that inhibits transcription and expression of IL17A gene and/or IL17F gene. The compounds having the structural formula (A) has a good inhibitory effect on RORγt activity. […] Therefore, the compound may be used to produce a formulation of corresponding activity inhibitor, and provide a leading structure for the development of therapeutic drugs for autoimmune diseases.
It can be seen from FIG. 21 that Compounds 6, 10, 22, 28, and 31 have significant inhibitory effects. In the figure, the results of solvent group, 1.56 μM compound group, 3.12 μM compound group, and 6.25 μM compound group are shown from left to right.

[1] = test system: RORγt, IL17A, IL-17F mRNA; experiment: mRNA expression of RORγt, IL17A and IL-17F in Th17 cell differentiation in vitro; details: FIG. 22, 1.56, 3.12 and 6.25 μM compound vs solvent group

| Compound | CC50 (RORγt-LBD+-Jurkat cells) [µM] | EC50 (RORγt) [µM] | inhibition of intracellular protein expression of IL-17A (in words) (IL-17A) | inhibition of mRNA expression of RORγt, IL17A and IL-17F (in words) [1] | inhibiting RORγt transcription activity (in words) (RORγt; FIG. 20) |
| --- | --- | --- | --- | --- | --- |
| O=C(O)Cc1nc(Sc2nnnn2-c2ccccc2)c2c3c(sc2n1)CCCC3 | > 10 | > 10 |  |  |  |
| CCOC(=O)C1CCc2c(sc3nc(C)nc(Sc4nnnn4-c4ccccc4)c23)C1 (stereo not drawn) | > 10 | 6.15 |  |  |  |
| Cc1nc(Sc2nnnn2-c2ccccc2)c2c3c(sc2n1)CC(C)(C)CC3 | 7.7 | 4.58 | significant inhibitory effects | significant inhibitory effects |  |
| Cc1ccc(NC(=O)Cc2nc(Sc3nnnn3-c3ccccc3)c3c4c(sc3n2)CCCC4)nc1 | 4.01 | > 10 |  |  |  |
| CCOC(=O)Cc1nc(Sc2nnnn2-c2ccccc2)c2c3c(sc2n1)CCCC3 | 3.35 | 0.14 | significant inhibitory effects | significant inhibitory effects | significant effect |
